Measured values as given in patent publication US6291677A, “Compounds having activity as inhibitors of cytochrome P450RAI” (Allergan Sales, Inc., priority 2000, dated 2001).
Where two headings read alike, the source gives them in different places. Blank lines part the entries; values can stand above or below the compound they belong to.

Chains of the proteins cited; added tags and fusions are not shown. Residues count along the entry.
UniProt P10826, 1-448 isoform P10826-2: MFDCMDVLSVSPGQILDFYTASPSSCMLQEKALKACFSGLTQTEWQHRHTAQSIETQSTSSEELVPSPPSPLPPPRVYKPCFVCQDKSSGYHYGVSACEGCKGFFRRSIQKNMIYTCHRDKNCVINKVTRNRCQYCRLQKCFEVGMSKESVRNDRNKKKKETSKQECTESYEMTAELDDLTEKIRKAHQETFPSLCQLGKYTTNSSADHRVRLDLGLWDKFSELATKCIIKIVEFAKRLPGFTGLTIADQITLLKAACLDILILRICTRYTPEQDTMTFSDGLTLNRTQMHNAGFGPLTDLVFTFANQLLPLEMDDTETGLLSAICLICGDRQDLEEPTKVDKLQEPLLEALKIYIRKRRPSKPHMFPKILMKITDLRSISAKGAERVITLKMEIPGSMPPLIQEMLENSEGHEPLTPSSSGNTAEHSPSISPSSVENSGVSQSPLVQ

Key:
[1] = molecular target: RARβ (Homo sapiens, UniProt P10826); test: ligand binding assay, RARβ
[2] = molecular target: T1, P450RAI-1 (Homo sapiens, UniProt O43174); test: cell-based; conditions: read-out: P450RAI INHIBITION DATA INTACT HELA IC50
T1 sequence (O43174 1-497): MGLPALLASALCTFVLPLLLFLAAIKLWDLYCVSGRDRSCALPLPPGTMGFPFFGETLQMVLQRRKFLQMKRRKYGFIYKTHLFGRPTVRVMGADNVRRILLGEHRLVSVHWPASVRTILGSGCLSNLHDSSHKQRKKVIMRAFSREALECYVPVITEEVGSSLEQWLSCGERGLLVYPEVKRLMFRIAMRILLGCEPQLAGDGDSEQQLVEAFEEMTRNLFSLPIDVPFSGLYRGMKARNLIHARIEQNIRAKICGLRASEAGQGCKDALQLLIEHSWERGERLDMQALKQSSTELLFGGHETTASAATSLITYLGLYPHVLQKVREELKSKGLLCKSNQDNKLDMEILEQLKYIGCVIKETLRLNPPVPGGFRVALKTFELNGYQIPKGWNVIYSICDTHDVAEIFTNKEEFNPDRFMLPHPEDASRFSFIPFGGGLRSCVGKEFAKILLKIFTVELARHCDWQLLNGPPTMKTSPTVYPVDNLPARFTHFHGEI

Kd [1]: 732 nM
SMILES: CN(Cc1ccccc1)C1(c2ccc(C#Cc3ccc(C(=O)O)cc3)cc2)CC1 [Compound 116, 4-[4-(1-Benzylmethylamino-cyclopropyl)-phenylethynyl]-benzoic acid]

IC50 [2]: 400 nM
SMILES: Cc1cc(C#Cc2ccc(C(=O)O)cc2)ccc1Cn1ccnc1 [Compound 119, 4-(4-Imidazol-1-yl-methyl-3-methyl-phenylethynyl)-benzoic acid]

SMILES: CC(C)c1cc(C#Cc2ccc(CC(=O)O)cc2)ccc1Cn1ccnc1 [Compound 127, [4-(4-Imidazol-1-yl-methyl-3-isopropyl-phenylethynyl)-phenyl]-acetic acid]
IC50 ([2]; intact HeLa, P450RAI-1 stably transfected, [3H]-RA, 3 hours at 37° C): 400 nM
